What was measured:
[1] = biological target: T1, Poly [ADP-ribose] polymerase 1 (Homo sapiens, UniProt P09874); conditions: A549
[2] = biological target: T1, Poly [ADP-ribose] polymerase 1
[3] = biological target: T1, Poly [ADP-ribose] polymerase 1; conditions: MDA-MB-468

The chains behind the UniProt entries cited, without tags or fusion partners.
UniProt P09874, whole entry: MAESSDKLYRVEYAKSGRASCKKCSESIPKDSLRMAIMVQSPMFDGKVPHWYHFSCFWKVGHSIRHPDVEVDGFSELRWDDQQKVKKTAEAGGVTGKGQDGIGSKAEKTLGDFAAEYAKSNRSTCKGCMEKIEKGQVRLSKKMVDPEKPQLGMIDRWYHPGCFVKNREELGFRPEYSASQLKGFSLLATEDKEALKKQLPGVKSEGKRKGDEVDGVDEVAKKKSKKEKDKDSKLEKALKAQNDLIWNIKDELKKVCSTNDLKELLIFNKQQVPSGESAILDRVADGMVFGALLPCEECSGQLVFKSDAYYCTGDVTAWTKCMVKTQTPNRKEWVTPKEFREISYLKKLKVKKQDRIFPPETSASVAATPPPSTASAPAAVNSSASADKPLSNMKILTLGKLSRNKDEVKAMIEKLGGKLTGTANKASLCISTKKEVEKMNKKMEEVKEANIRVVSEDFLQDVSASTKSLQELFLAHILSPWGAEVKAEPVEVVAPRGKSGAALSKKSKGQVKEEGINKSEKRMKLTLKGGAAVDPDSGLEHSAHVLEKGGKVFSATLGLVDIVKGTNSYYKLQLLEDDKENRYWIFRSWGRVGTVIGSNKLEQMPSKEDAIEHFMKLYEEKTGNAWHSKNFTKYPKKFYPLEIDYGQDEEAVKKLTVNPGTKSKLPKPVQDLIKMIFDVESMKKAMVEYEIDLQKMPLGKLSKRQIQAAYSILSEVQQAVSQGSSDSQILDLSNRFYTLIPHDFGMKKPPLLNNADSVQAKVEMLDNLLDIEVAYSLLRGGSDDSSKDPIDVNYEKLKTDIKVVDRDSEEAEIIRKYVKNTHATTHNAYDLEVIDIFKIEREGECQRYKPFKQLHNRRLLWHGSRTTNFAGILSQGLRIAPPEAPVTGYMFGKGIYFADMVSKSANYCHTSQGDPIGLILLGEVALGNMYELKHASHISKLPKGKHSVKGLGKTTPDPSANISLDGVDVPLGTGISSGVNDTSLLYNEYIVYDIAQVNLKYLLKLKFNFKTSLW

PF50 [1] | PF50 [2] | PF50 [3] | SMILES
6.5 | 2.5 | 2.6 | CC(C)CN1CCC(c2nc3cncc4c3n2CCNC4=O)CC1
1.1 | 1.1 | 1 | O=C1NCCn2c(-c3ccc(N4CCNCC4)cc3)nc3cncc1c32
3.2 | 2.1 | 2 | CCNCc1ccc(-c2nc3cncc4c3n2CCNC4=O)cc1
1.2 | 1.5 | 0.6 | CNCc1ccc(-c2nc3cncc4c3n2CCNC4=O)cc1

From ChEMBL document CHEMBL4431370, “Novel tricyclic poly (ADP-ribose) polymerase-1/2 inhibitors with potent anticancer chemopotentiating activity: Design, synthesis and biological evaluation” (Bioorg Med Chem, 2016)
